The values that follow come from patent US20130203765A1, “DEUTERATED PYRROLOPYRIMIDINE COMPOUNDS AS INHIBITORS OF CDK4/6” (Novartis AG, priority 2010, published 2013).

Amino acid sequences for entries named in this document (tags omitted). A change or cut given only in a name is not applied to a line headed by its entry.
UniProt P11802: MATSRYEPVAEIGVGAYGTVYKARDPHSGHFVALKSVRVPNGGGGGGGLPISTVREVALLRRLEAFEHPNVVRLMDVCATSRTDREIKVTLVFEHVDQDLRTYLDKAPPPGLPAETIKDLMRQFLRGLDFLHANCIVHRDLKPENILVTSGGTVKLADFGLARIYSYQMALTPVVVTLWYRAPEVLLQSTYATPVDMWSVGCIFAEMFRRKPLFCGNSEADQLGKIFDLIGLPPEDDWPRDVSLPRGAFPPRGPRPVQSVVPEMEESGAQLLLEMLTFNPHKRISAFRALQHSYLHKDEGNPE

For the experiment, the target named is T1, CDK4/cyclin D1 (Homo sapiens, UniProt P11802).
T1 construct: His6 (N); made in house; host or cells: Sf21 insect cells (baculovirus)
The experiment is described as follows: CDK4/cyclin D1 enzymatic activity assay (Lance TR-FRET). It counts as biochemical. As to conditions: 0.3 nM CDK4/cyclin D1, 175 nM pRb152, 3 μM ATP, 60 min. How it is done:
The same assay was used for IC50 determination of small molecule inhibitors. In general, the kinase reactions were carried out in 30 μL volumes in the reaction solution containing the following: 2 uL compound (in 20% DMSO), 18 uL CDK4/cyclin D1 in Assay Buffer (50 mM HEPES, pH 7.5, 5 mM MgCl2, 2 mM MnCl2, 1 mM DTT, 0.05% BSA, 0.02% Tween-20), 10 uL of the mixture of pRb152 and ATP. […] All reactions were run at room temperature in 384-well white flat-bottom OptiPlates (Perkin Elmer, Cat. No. 6007290) for 60 min then were quenched by the addition of 10 μL of 120 mM EDTA. The signals were captured by the addition of 40 μL of the Detection Solution containing the following: Detection Buffer (50 mM HEPES, pH 7.5, 30 mM EDTA, 0.1% Triton x-100, 0.05% BSA), 70 ng/mL anti-phospho-pRb(S780) (Cell Signaling Technology, Cat. No. 9307S), 1 nM Lance Eu-W1024-Rabbit anti-IgG (Perkin Elmer, Cat. No. AD0082), and 20 nM SureLight™ Allophycocyanin-Streptavidin (Perkin Elmer, Cat. No. CR130-100). The resulted solutions were incubated at room temperature for 2 hours before read on the Evision Multilabel Reader (Perkin Elmer, Envision 2102-0010).
On the technique in general: Time-resolved FRET reads energy transfer from a long-lived donor to a nearby acceptor.

Usually IC50 stands for the concentration that inhibits the measured activity by half.

With “7-cyclopentyl-2-(5-piperzin-1-yl-pyridin-2-ylamino)-7H-pyrrolo[2,3-d]pyrimidine-6-carboxylic acid dimethylamide-d5 [Example 1]”, the midpoint of inhibition, the IC50, lay at 25 nM.
